PDI inh: inhibitors of human PDI, primary screen, biochemical, turbidity, single point, plate reader | Protein disulfide-isomerase (Homo sapiens), P07237 | PDI insulin aggregation turbidity, A650, 90 min | inhibition, % at 10 µM | actives 0.052% (n = 350,000);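 active = mean inhibition across replicates of 30% or more, whatever share of single replicates reach that level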
S100A4 inh HTS: inhibitors of S100A4-myosin IIA peptide binding, primary screen, biochemical, fluorescence polarization, TAMRA-MyoIIA peptide. inhibition, % at 10.7 µM. actives 0.14% (n = 360,000). AID 652163, 2013;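 active = mean inhibition of at least 70% across replicates, with every replicate also reaching that level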
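Compound dosing: one dose per compound; test system: human S100A4 monomer with TAMRA-labelled myosin IIA peptide; probe or stimulus: TAMRA-labelled myosin IIA heavy-chain peptide probe, 5 nM; medium: HEPES buffer with Ca2+, pH 7.2; schedule: 5 min incubation before reading; benchmarks: neutral control DMSO, positive control TFP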
Yeast UUG start: modulators of start codon recognition fidelity in yeast; AID 602363; activity score, % at 18.7 µM; S. cerevisiae UUG-firefly luciferase reporter, luminescence/redox ratio; 0.13% of 350,000 active;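 active = replicate mean at a twofold rise or more, about +100% in these data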;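 note: firefly luciferase made from a UUG start codon reports start codon fidelity; reporter light over untreated wells divided by growth signal over untreated wells; some hits fall short of that in this replicate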
FGF22 binding-1: binders of human FGF22 protein, primary screen, FGF22 synaptogenesis inhibitor project, biophysical, thermal shift, single point. recombinant FGF22 thermal shift, SYPRO orange fluorescence; percent of sucrose octasulfate shift, DMSO zero. activity (Tm shift, normalised), % at 9.99 µM. actives 1.5% (n = 340,000). AID 651658, 2012;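 active = mean Tm shift, scaled 0 neutral to 100 positive control, at about 1.3% or above, every replicate too, limit read from the data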
ERp5 inh: inhibitors of ERp5-driven insulin aggregation, primary screen, biochemical, turbidity, absorbance 650 nm, single point | Protein disulfide-isomerase A6 (Homo sapiens), Q15084 | 90 min | inhibition, % at 9.99 µM | actives 0.05% (n = 350,000) | AID 651711, 2012;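 active = mean replicate inhibition above about 25%, with every replicate also reaching it, limit read from the data, passing the limit was not always enough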
SIRT5 block: SIRT5 desuccinylase inhibitors, primary screen, biochemical, fluorescence imaging, single point, set 5; inhibition, % at 15 µM; actives 1.1% (n = 330,000); NAD-dependent protein deacylase sirtuin-5, mitochondrial (Homo sapiens), Q9NXA8; Purified SirT5, succinyl-peptide AMC, trypsin-coupled fluorescence; AID 652115, 2013; in the data active = inhibition above about 15%
FGF22 binding-2: binders of human FGF22 protein, dose response, FGF22 synaptogenesis inhibitor project, biophysical, thermal shift, cherry-pick retest. shares compounds with FGF22 binding-1. recombinant FGF22 thermal shift, SYPRO orange fluorescence. thermal shift activity, °C (ΔTm) at 38 µM. actives 2% (n = 1,000). AID 720646, 2013;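 active = fitted rise in melting shift crosses a set limit at or below the top valid dose tested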
TSA no protein: compound-only thermal shift signal without protein, dose response, artefact control for FGF22 binder project, biochemical, cherry-picked samples, RT-PCR instrument. shares compounds with FGF22 binding-1. compound-only SYPRO orange thermal shift counter-screen, no protein. AC50, µM (doses to about 38 µM). actives 2% (n = 1,000). AID 743019, 2013;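 active = rising signal whose fitted curve reaches the 0.54 level within the top valid dose, showing a melting point, actives reach about 13 µM in these data; inactive = the rest, including activity in the opposite direction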; note: value is where the raw curve crosses a fixed level and not half-maximal
* hit, by the source's call; [ ] = another dose, or the depositor's remark. Compounds with a hit are over-represented: about 2.2% of the library has one in this group of screens.

`COc1cccc(-c2ccc([C@@H]3[C@@H](CO)N4CCCCN(C(=O)Cc5ccncc5)C[C@@H]34)cc2)c1` gave S100A4 inh HTS -5, Yeast UUG start -8, FGF22 binding-1 1.4*, ERp5 inh -6, SIRT5 block 0, FGF22 binding-2 0.065[42 µM] and TSA no protein inactive.
`COc1cccc(-c2ccc([C@H]3[C@@H](CO)N4CCCCN(C(=O)Cc5ccncc5)C[C@@H]34)cc2)c1` gave S100A4 inh HTS -7, Yeast UUG start -3, FGF22 binding-1 0, ERp5 inh 2 and SIRT5 block 3.
O=C(Nc1ccccc1)c1cccn(Cc2ccccc2)c1=O was read as PDI inh 1, S100A4 inh HTS -1, FGF22 binding-1 1.4*, ERp5 inh 0, SIRT5 block 5, FGF22 binding-2 -0.16 and TSA no protein inactive.
O=C(Cc1ccccn1)N1CCCCN2[C@@H](CO)[C@H](c3ccc(C#Cc4ccccc4)cc3)[C@@H]2C1 was read as S100A4 inh HTS -6, Yeast UUG start 9, FGF22 binding-1 0, ERp5 inh -7 and SIRT5 block 2.
`CC(=O)Nc1ccc(S(=O)(=O)N2Cc3ccccc3-n3nncc3C2)cc1` gave PDI inh 1, S100A4 inh HTS -2, FGF22 binding-1 23*, ERp5 inh 2, SIRT5 block 0, FGF22 binding-2 0.12 and TSA no protein inactive.
`COC(=O)[C@H]1[C@H](CO)[C@H]2Cn3c(ccc(C4=CCCC4)c3=O)[C@@H]1N2Cc1ccccn1` gave S100A4 inh HTS -49, FGF22 binding-1 0, ERp5 inh -2 and SIRT5 block -3.
For O=C(N/N=C/c1c(O)n(C2CC2)c(=S)[nH]c1=O)c1ccccc1O the results were PDI inh -6.
`Cc1ccccc1-n1c(O)c(/C=N/NC(=O)c2ccccc2O)c(=O)[nH]c1=S` gave PDI inh 5, S100A4 inh HTS -20, Yeast UUG start -42, FGF22 binding-1 1.8*, ERp5 inh -9, SIRT5 block 1, FGF22 binding-2 -0.058 and TSA no protein inactive.
Screening C/C=C/c1ccc([C@H]2[C@@H](CO)N3CCCCN(C(=O)Cc4ccncc4)C[C@@H]23)cc1 returned S100A4 inh HTS -1, Yeast UUG start -5, FGF22 binding-1 0, ERp5 inh -4 and SIRT5 block 1.
CC=Cc1ccc2n(c1=O)C[C@H]1[C@H](CO)[C@@H](C(=O)N(C)C)N[C@@H]21 (mixture of isomers) was read as S100A4 inh HTS 9, FGF22 binding-1 1.7*, ERp5 inh 14, SIRT5 block -7, FGF22 binding-2 0.031 and TSA no protein inactive.

Brought forward from above: two compounds, followed by the next part.
Screening C/C=C/c1ccc([C@H]2[C@@H](CO)N3CCCCN(C(=O)Cc4ccncc4)C[C@@H]23)cc1 returned S100A4 inh HTS -1, Yeast UUG start -5, FGF22 binding-1 0, ERp5 inh -4 and SIRT5 block 1.
CC=Cc1ccc2n(c1=O)C[C@H]1[C@H](CO)[C@@H](C(=O)N(C)C)N[C@@H]21 (mixture of isomers) was read as S100A4 inh HTS 9, FGF22 binding-1 1.7*, ERp5 inh 14, SIRT5 block -7, FGF22 binding-2 0.031 and TSA no protein inactive.
COC(=O)[C@H]1N[C@H]2c3ccc(C4=CCCC4)c(=O)n3C[C@H]2[C@@H]1CO was read as S100A4 inh HTS -16, FGF22 binding-1 0, ERp5 inh -2 and SIRT5 block -6.
`Cc1cc(OCC(=O)NC(Cc2ccc(Cl)cc2)C(=O)O)c2c3c(c(=O)oc2c1)CCC3` (configuration not stated) gave S100A4 inh HTS -10, Yeast UUG start -16, FGF22 binding-1 1.7*, ERp5 inh 2, SIRT5 block -2, FGF22 binding-2 -0.15 and TSA no protein inactive.
Screening CN(C)Cc1c[nH]c2ccccc12 returned S100A4 inh HTS -2, Yeast UUG start -9, FGF22 binding-1 19*, ERp5 inh -1, SIRT5 block -2, FGF22 binding-2 0.045 and TSA no protein inactive.
`C=CCN(CC=C)Cc1c[nH]c2ccccc12` gave S100A4 inh HTS -11, FGF22 binding-1 0, ERp5 inh 3 and SIRT5 block 0.
Screening O=C(O)[C@H]1[C@H](CO)[C@H]2Cn3c(ccc(-c4ccccc4)c3=O)[C@@H]1N2CC1CCCCC1 returned S100A4 inh HTS 5, FGF22 binding-1 0, ERp5 inh 0 and SIRT5 block -3.
O=C(Cc1ccccc1)N1C[C@@H]2[C@H](c3ccccc31)[C@@H](CO)N2Cc1ccccc1 was read as S100A4 inh HTS 3, Yeast UUG start -8, FGF22 binding-1 0, ERp5 inh -3 and SIRT5 block -2.
CC1([N+](=O)[O-])COP(=O)(NC2CC2)OC1 (configuration not stated) was read as PDI inh -4, S100A4 inh HTS -1, FGF22 binding-1 46*, ERp5 inh -11, SIRT5 block 1 and TSA no protein inactive.

From PubChem BioAssay
